The source of these data is ChEMBL document CHEMBL1129490, “Synthesis, biological evaluation, and quantitative receptor docking simulations of 2-[(acylamino)ethyl]-1,4-benzodiazepines as novel tifluadom-like ligands with high affinity and selectivity for kappa-opioid receptors” (1996).

By UniProt entry, the sequences of proteins in these tests, tags left out. Where a name states a change or a piece, a line headed by the entry shows the natural chain unless it says otherwise.
UniProt P41144: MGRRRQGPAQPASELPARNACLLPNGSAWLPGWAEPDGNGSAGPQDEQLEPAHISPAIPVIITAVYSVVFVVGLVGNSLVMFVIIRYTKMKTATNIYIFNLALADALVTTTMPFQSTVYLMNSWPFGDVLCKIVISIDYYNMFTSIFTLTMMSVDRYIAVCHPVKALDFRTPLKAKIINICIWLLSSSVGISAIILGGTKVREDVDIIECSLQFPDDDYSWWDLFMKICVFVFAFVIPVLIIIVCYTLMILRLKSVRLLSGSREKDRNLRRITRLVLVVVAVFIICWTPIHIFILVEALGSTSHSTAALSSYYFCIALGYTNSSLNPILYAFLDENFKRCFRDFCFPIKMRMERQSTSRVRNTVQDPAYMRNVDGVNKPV
UniProt P97266, whole entry, looked up: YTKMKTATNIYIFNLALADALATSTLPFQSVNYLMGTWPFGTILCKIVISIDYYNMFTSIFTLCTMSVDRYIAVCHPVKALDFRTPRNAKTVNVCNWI
UniProt P30551, whole entry, looked up: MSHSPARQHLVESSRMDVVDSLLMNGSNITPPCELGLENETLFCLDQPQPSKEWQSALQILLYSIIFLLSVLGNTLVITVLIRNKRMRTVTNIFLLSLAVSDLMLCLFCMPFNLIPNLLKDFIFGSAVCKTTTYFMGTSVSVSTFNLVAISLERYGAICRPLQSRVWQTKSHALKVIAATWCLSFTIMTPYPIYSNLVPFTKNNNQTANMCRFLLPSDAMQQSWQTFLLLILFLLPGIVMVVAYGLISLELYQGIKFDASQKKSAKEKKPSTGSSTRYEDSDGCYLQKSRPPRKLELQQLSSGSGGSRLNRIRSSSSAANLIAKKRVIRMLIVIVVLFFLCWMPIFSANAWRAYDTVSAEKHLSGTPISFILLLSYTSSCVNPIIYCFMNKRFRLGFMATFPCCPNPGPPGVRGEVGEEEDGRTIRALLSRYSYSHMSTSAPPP

Assay [1] has as its target T1, Kappa-type opioid receptor (Cavia porcellus, UniProt P41144). Description: Binding affinity against Opioid receptor kappa 1 in guinea pig.
Assay [2] addresses Mu-type opioid receptor (Cavia porcellus, UniProt P97266). In words: Binding affinity against Opioid receptor mu 1 using [3H]-DAMGO as radioligand in guinea pig brain.
Assay [3] addresses T1, Kappa-type opioid receptor. Description: Binding affinity against Opioid receptor kappa 1 of guinea pig using [3H]U-65693 as radioligand.
Assay [4] has as its target Cholecystokinin receptor type A (Rattus norvegicus, UniProt P30551). Description: Binding affinity against Cholecystokinin type A receptor using [125I](BH)-CCK-8 as radioligand in rat pancreas.

Each structure is given as a SMILES string.

In general, Ki refers to a measure of affinity in units of concentration, obtained from inhibition or displacement. Higher therefore signals weaker binding. As for `CN1c2ccc(Cl)cc2C(c2ccccc2)=NCC1CCNC(=O)c1ccccc1F` (stereo not drawn), the Log Ki in assay [1] is -7.75. The results for the inhibition constant (Ki) in assay [2] and in assay [3] were 62.1 nM and 17.9 nM, respectively.

For the compound `CN1c2ccccc2C(c2ccccc2F)=NC[C@@H]1CNC(=O)c1ccsc1`, the Log Ki in assay [3] was -9.1.

For the compound `CN1c2ccccc2C(c2ccccc2)=NCC1CCNC(=O)c1ccccc1F` (stereo not drawn), in assay [1], the Log Ki is -8.99. Besides, the Ki in assay [2] is 4.69 nM; in assay [3], 1.03 nM.

Consider `CN1c2ccc(Cl)cc2C(c2ccccc2)=NCC1CCNC(=O)c1ccc(Cl)cc1` (stereo not drawn), for which the values for the Ki in assay [2] and in assay [3] were more than 100 nM and 35 nM, respectively.

On to `CN1c2ccc(Cl)cc2C(c2ccccc2)=NCC1CCNC(=O)c1cc2ccccc2[nH]1` (stereo not drawn), for which the Ki was more than 100 nM in assay [2] and 296 nM in assay [3].

`CN1c2ccc(Cl)cc2C(c2ccccc2)=NCC1CCNC(=O)c1ccc(F)cc1` (stereo not drawn) returned a Log Ki in assay [1] of -8.32. Besides, the Ki in assay [2] came to 53.2 nM; in assay [3], 4.74 nM.

`CN1c2ccccc2C(c2ccccc2F)=NCC1CNC(=O)c1ccsc1` (stereo not drawn): the Ki turned out to be 1.93 nM in assay [2], 0.78 nM in assay [3] and 47 nM in assay [4].

The compound `CN1c2ccc(Cl)cc2C(c2ccccc2)=NCC1CCNC(=O)c1cccs1` (stereo not drawn) gave a Log Ki in assay [1] of -8.05. Further, the Ki in assay [2] amounted to 69.4 nM; in assay [3] it was 8.84 nM.

The compound `CN(C(=O)Cc1ccc(Cl)c(Cl)c1)C1CCCCC1N1CCCC1` (stereo not drawn) gave a Log Ki in assay [1] of -9.04.

For the compound `CN1c2ccccc2C(c2ccccc2)=NCC1CCNC(=O)c1cccs1` (stereo not drawn), the Log Ki in assay [1] is -9.3. Besides, the results for the Ki in assay [2] and in assay [3] were 6.42 nM and 0.5 nM, respectively.

Compound `CN(C(=O)Cc1ccccc1)[C@H]1CC[C@@]2(CCCO2)C[C@@H]1N1CCCC1` registered a Log Ki in assay [1] of -8.75.

Consider `CN1c2ccccc2C(c2ccccc2)=NCC1CCNC(=O)c1ccc(F)cc1` (stereo not drawn), for which, in assay [1], the Log Ki was -9.25. The values for the inhibition constant Ki in assay [2] and in assay [3] were 2.26 nM and 0.56 nM, respectively.
